This is an account of results in US10308637B2 (LifeSci Pharmaceuticals, Inc., priority 2015, dated 2019).

The test can be described thus: Contact Assay (percentage inhibition from fluorescence intensity). The format is biochemical. Here is the method:
The percentage inhibition was calculated using the following equation:
[formula] where, Mean(BG) is the average value of the fluorescence intensity of the background wells and Mean(PC) is the average value of the fluorescence intensity of the positive control wells.
Table 4 provides the EC50 values of various compounds disclosed herein.

Take `Cc1cc(N)nc(C)c1CNC(=O)c1ccnc(Cc2cc(C(N)=O)c3ncc(Cl)cc3c2)c1` [Example 58, 6-((4-(((6-amino-2,4-dimethylpyridin-3-yl)methyl)carbamoyl)pyridin-2-yl)methyl)-3-chloroquinoline-8-carboxamide]: the concentration for a half-maximal effect (EC50) was no more than 100 nM.

By EC50 is commonly meant the concentration at which the effect is half-maximal.
